Measurements: patent publication US10870625B2, “Zwitterionic propargyl-linked antifolates useful for treating bacterial infections” (THE UNIVERSITY OF CONNECTICUT, priority 2016, dated 2020)

Molecular target: MtbDHFR (Mycobacterium tuberculosis (strain ATCC 25618 / H37Rv), UniProt P9WNX1)
Experiment: M. tuberculosis DHFR enzyme inhibition
Type: biochemical

Which IC50 does the source give for `CCc1nc(N)nc(N)c1C#CC(C)c1cc2c(c(-c3cncn3C)c1)OCO2` (stereo not shown) [Compound 54] here?
The IC50 was 0.326 µM.
